Apparent affinities of Ab-14 variants for a coronavirus HR2 peptide

Reference: Li et al. 2023, doi:10.1038/s41467-023-39022-2. File: FLAb, binding data.

Antigen: PDVDLGDISGINAS, a 14-residue peptide of the SARS-CoV-2 spike HR2 region.

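The parent was found by panning a naive human phage display library on the peptide. The variants were designed computationally from a first round of random CDR variants and then made and measured. Group labels follow the data file (Ctrl: baseline library sampled from a position-specific scoring matrix, with some repeated check sequences; GPLM: also part of the Gaussian process libraries; HC: hill climbing; Gen: genetic algorithm; a sequence that several methods proposed may carry one label only). AlphaSeq pools MATa yeast showing the antibodies with MATalpha yeast showing the peptide. After mating in shaken culture at 30 °C for 16 h, diploids were selected and their barcode pairs sequenced. Scores were corrected for input abundance and mapped to Kd with protein pairs of known affinity run in the same pool. The assay was run in six technical replicates.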

The variants keep the light chain, the linker and the frameworks of Ab-14 (scFv order VH, a 15-residue (Gly4Ser)3 linker, VL).
VH: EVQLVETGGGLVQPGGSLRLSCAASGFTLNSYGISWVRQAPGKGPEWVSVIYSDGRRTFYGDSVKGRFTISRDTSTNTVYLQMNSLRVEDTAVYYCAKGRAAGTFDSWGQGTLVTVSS
VL: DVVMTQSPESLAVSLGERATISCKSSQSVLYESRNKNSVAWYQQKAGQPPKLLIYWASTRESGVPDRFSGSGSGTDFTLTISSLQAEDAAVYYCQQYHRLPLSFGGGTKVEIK

Each variant is given by its three heavy chain CDRs, as the data file delimits them; those of the parent are GFTLNSYGIS, VIYSDGRRTFYGDSVK, GRAAGTFDS. Scale: log10 of Kd in nM, estimated from mating counts; low values are strong binders. The mean shown is taken over the replicates in which the pair was detected. Where no diploid with the target was found in that replicate, the entry reads "ND": below detection, most likely a poor binder, though not proof of it. The authors' rule: three or more of the six replicates give a measured affinity, fewer mean a poor binder. A sequence that the file lists under several names has all its replicates listed entry by entry, parted by semicolons. Empty control strains, which show no peptide, gave a signal in 1% of pairings with all heavy chain designs; the median was 2.08 and 95% of these signals were weaker than 0.84. No background was subtracted. For each scFv, signals with the empty controls are counted beside the result, with their mean in brackets. Values of this round are not directly comparable with the first-round values of the same sequences.

| CDR-H1 | CDR-H2 | CDR-H3 | group | log10 Kd, replicates | log10 Kd (nM), mean | control signals |
|---|---|---|---|---|---|---|
| GHTLNSYGIS | VIYSDGRRTFYGDSVK | GRAAGAFDT | Ctrl | ND ND ND ND ND ND | ND | 0/18 |
| GFTLNSYGIS | VIYADGRRTFYEDSVK | GEAIGTFDS | Ctrl | ND ND ND ND ND ND | ND | 0/18 |
| GFTLNSYGIS | VIYFDGKRTFYGDSVK | GRAAGTFDD | Ctrl | ND ND ND ND ND ND | ND | 0/18 |
| GFDLNEYGIS | VIYSDGRRTFYLDSVK | GFAAGTFDS | Ctrl | 0.72 0.72 1.12 0.17 0.54 0.80 | 0.68 | 0/18 |
| GFTLNSYGIS | VIYSDGRRTFYADSVK | QRAAGTFDS | Ctrl | ND ND ND ND ND ND | ND | 0/18 |
| GFTLNSYGIS | VIYSDGQRQFYLDSVR | GRAAGTFDS | Ctrl | ND ND ND ND ND ND | ND | 0/18 |
| GFTLNSYGIS | VIYSDGRRTFYQDSVK | GRAAINFDS | Ctrl | ND ND ND ND ND ND | ND | 0/18 |
| GFELNSYGIS | VIYSDGIRTSYGDSVK | GRAAGTFDS | Ctrl | 0.37 0.35 0.81 1.09 0.52 1.38 | 0.75 | 0/18 |
| DFDLNSYGIS | VIYSDGRRTFYDGSVK | GRAAGTFDS | Ctrl | ND ND 2.45 2.30 ND 2.74 | 2.49 | 0/18 |
| GFTPNSYGIS | VIYSDGRRTFYQDSVK | GTAAGTYDS | Ctrl | ND ND ND ND ND 2.45 | 2.45 | 0/18 |
| GFTLNSYGIS | VIYSDGRRLFYGDSVK | GRLAGTFDK | Ctrl | ND ND ND ND ND ND | ND | 0/18 |
| GFTINSYGIS | VIYSDGRRTAYGDEVK | GRAAGHFKS | Ctrl | 0.09 ND ND ND ND ND | 0.09 | 0/18 |
| GFTINDYGIS | VIYSDGRRTFYSDSVK | GRAAGTFHS | Ctrl | ND ND ND ND ND ND | ND | 0/18 |
| GFPLNSYGIS | VIYSDGRRTAYGPSVK | GRNAGTFDS | Ctrl | 1.43 1.19 1.41 1.24 0.87 1.29 | 1.24 | 0/18 |
| GFTLQSYGIS | VIYSDGRRTFYQDSVK | GRAAGTFDS | Ctrl | ND ND ND ND ND ND | ND | 0/18 |
| KFTLNSYGIS | VIYSDGRRTFYQDKVK | GDAAGTFDE | Ctrl | ND 2.01 1.71 2.02 1.41 2.64 | 1.96 | 0/18 |
| GFTLNSYGIS | VIYSDGRRTFYGDSTK | ERNADTFDS | Ctrl | ND ND ND ND ND ND | ND | 0/18 |
| GFTINSYGIS | VIYSDGRRTFYTDSVK | GRAAGTFDL | Ctrl | ND 1.25 1.81 ND ND ND | 1.53 | 0/18 |
| GFTLNSYGIS | VIYSDGRRTFYGDFVK | GYAAGTFDS | Ctrl | ND ND ND ND ND ND | ND | 0/18 |
| GFALNSYGIS | VIYSDGRRTFYVDDVK | GRAAGTFDM | Ctrl | ND 1.83 ND ND 2.44 1.67 | 1.98 | 0/18 |
| GFTLNDYGIS | VIYSDGRRTFYSDSVK | GRAAGTFDS | Ctrl+GPLM_Gen | 0.94 1.18 1.14 1.76 1.06 1.21; 0.18 0.43 0.12 0.46 0.02 0.13 | 0.72 | 0/36 |
| GFTLNSYGIS | VIYSDGRRTFYQDSVK | GRAAGTFDD | Ctrl | ND 1.62 2.60 ND ND ND | 2.11 | 0/18 |
| GFTLNSYGIS | VIYSDGRRTFYGDSVK | GQEAGTGDS | Ctrl | ND ND ND ND ND ND | ND | 0/18 |
| GFSLNSYGIS | VIYSDGRKTFMGDRVK | GRDAGTFDS | Ctrl | ND ND ND ND ND ND | ND | 0/18 |
| RFGLNEYGIS | VIYSDGRRTFYGDEVK | GRAAGTFDL | Ctrl | ND ND ND ND ND ND | ND | 0/18 |
| GFTLNSYGIS | VIYSDGRRTFYGDSVK | GKLAGTFDS | Ctrl+GPLM_HC | ND ND ND -0.45 ND ND; ND 1.76 0.97 1.47 0.97 ND | 0.94 | 0/36 |
| GFNLNSYGIS | VIYSDGRRTFYGDSVK | GRAAGTFDL | Ctrl | ND 1.52 1.31 1.50 1.03 1.44 | 1.36 | 1/18 (1.76) |
| GFSLNSYGIS | VIYSDGRRTFIGDSVK | ARAAGTFDT | Ctrl | ND ND ND ND ND ND | ND | 0/18 |
| GFDLNSYGIS | VIYSDGRRTAYGDSVK | GRETGTFDA | Ctrl | 0.24 0.57 0.30 -0.17 -0.02 0.25 | 0.19 | 0/18 |
| GFTLNSYGIS | VIYSDGRRKFYLDSVK | GRAAGPFDS | Ctrl | ND ND ND ND ND ND | ND | 0/18 |
| HFTLNSYGIS | VIYSDGRRTFYGDSVK | GRAAATFDS | Ctrl | 1.76 ND ND ND 1.17 ND | 1.47 | 0/18 |
| GTELNSYGIS | VIYSDGRRTSYADSVK | DRPMGTFDS | Ctrl | ND ND ND ND ND ND | ND | 0/18 |
| GFTLNSYGVS | VIYSDGRRTFYGDSVK | GRASGTFDY | Ctrl | ND 2.38 ND 1.31 ND ND | 1.84 | 0/18 |
| GFTLNSYGIS | VIYSDGRRTFYGDSVK | GREAGVFDS | Ctrl | 0.80 1.19 ND 2.47 2.19 2.38 | 1.81 | 0/18 |
| GFTLDSYGIS | VIYSDGRRTFYEDSVK | GRHAGTFDS | Ctrl | 2.16 1.01 1.54 1.47 1.91 2.34 | 1.74 | 0/18 |
| GFALNSYGIS | VIYSDGERTFYGDSVK | GRAAGTFDS | Ctrl | 1.40 ND ND ND 1.85 ND | 1.63 | 0/18 |
| GFTINSYGIS | VIYSDGRREAYIDSVK | GRAAGTFDI | Ctrl | ND 2.14 ND 2.90 4.13 ND | 3.06 | 0/18 |
| GFTLNMYGIS | VIYSDGRRTFYGDSVK | TRAAGTFDS | Ctrl | ND ND ND ND ND ND | ND | 0/18 |
| GNTINSYGIS | VIYSDGRRTFYGDSVK | GRNAGTFDS | Ctrl | -0.35 ND ND ND ND ND | -0.35 | 0/18 |
| GFTLNSYGIS | VIYSDGRRTFYADSVK | GRASGTFDS | Ctrl | ND 1.85 2.01 ND 1.74 ND | 1.87 | 1/18 (3.93) |
| GFTMNSYGIS | VIYSDGRRTFYGDSVK | GREAGTFDS | Ctrl | 0.87 1.84 ND ND 1.31 0.70 | 1.18 | 0/18 |

From the list, the first 7 with no signal in any replicate:

| CDR-H1 | CDR-H2 | CDR-H3 | group | log10 Kd, replicates | log10 Kd (nM), mean | control signals |
|---|---|---|---|---|---|---|
| GHTLNSYGIS | VIYSDGRRTFYGDSVK | GRAAGAFDT | Ctrl | ND ND ND ND ND ND | ND | 0/18 |
| GFTLNSYGIS | VIYADGRRTFYEDSVK | GEAIGTFDS | Ctrl | ND ND ND ND ND ND | ND | 0/18 |
| GFTLNSYGIS | VIYFDGKRTFYGDSVK | GRAAGTFDD | Ctrl | ND ND ND ND ND ND | ND | 0/18 |
| GFTLNSYGIS | VIYSDGRRTFYADSVK | QRAAGTFDS | Ctrl | ND ND ND ND ND ND | ND | 0/18 |
| GFTLNSYGIS | VIYSDGQRQFYLDSVR | GRAAGTFDS | Ctrl | ND ND ND ND ND ND | ND | 0/18 |
| GFTLNSYGIS | VIYSDGRRTFYQDSVK | GRAAINFDS | Ctrl | ND ND ND ND ND ND | ND | 0/18 |
| GFTLNSYGIS | VIYSDGRRLFYGDSVK | GRLAGTFDK | Ctrl | ND ND ND ND ND ND | ND | 0/18 |